Results taken from ChEMBL document CHEMBL5149991 (J Med Chem, 2021).

Chains of the proteins cited; added tags and fusions are not shown.
UniProt P47747, whole entry: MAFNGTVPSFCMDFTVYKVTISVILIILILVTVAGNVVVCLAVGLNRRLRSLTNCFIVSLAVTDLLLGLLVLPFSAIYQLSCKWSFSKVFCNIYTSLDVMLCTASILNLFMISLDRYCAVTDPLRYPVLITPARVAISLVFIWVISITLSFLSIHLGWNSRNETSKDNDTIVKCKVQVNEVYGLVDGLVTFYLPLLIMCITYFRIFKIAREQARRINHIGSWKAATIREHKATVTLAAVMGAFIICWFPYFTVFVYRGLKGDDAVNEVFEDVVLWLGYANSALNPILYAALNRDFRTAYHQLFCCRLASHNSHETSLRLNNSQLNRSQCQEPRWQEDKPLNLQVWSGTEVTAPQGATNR

Assays:
[1] = biological target: Histamine H2 receptor (Cavia porcellus) (UniProt P47747); experiment: Agonist activity at guinea pig histamine H2 receptor stably transfected in HEK293T cells co-expressing NlucN-mGs/gpH2R-NlucC assessed as maximum efficacy at 100 uM by mini-G protein recruitment assay relative to histamine; type: functional, cell-based
[2] = biological target: Histamine H2 receptor (Cavia porcellus) (UniProt P47747); experiment: Agonist activity at histamine H2 receptor in spontaneous beating guinea pig right atrium assessed as increase in heart beat at 30 uM relative to histamine; type: functional, tissue-based; details: Right cardiac atrium

| SMILES | Emax [1] | Emax [2] |
| --- | --- | --- |
| Cc1ccc(CC(C)CNC(=O)/N=C(\N)NCCCc2nnc(N)s2)cc1.O=C(O)C(F)(F)F.O=C(O)C(F)(F)F (centres undefined) | 92% | 102% |
| CCCCCNC(=O)/N=C(\N)NCCCc1nnc(N)s1.O=C(O)C(F)(F)F.O=C(O)C(F)(F)F | 94% | 109% |
